Literature values, collected in patent US20070141059A1, “Use of cathepsin s inhibitors for treating an immune response caused by administration of a small molecule therapeutic or biologic” (AXYS Pharmaceuticals, Inc., priority 2003, published 2007).

Details: patients taking the biologic

## Referon®-A: biologic; biological agent that induces the production of specific immunoglobulins
  patients generating neutralizing antibodies: 25%
